## scFv variants of Ab-14 (heavy chain) against a SARS-CoV-2 spike peptide

All variants were tested on one target, the spike HR2 peptide PDVDLGDISGINAS (SARS-CoV-2).

The variants keep the light chain, the linker and the frameworks of Ab-14 (scFv order VH, a 15-residue (Gly4Ser)3 linker, VL).
VH: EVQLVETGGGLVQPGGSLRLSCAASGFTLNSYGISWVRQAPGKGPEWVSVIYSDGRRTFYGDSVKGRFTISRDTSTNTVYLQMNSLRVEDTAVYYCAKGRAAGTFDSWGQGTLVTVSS
VL: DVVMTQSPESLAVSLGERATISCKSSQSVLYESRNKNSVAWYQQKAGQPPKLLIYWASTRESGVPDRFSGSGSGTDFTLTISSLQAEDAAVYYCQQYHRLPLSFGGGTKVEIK

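The parent was found by panning a naive human phage display library on the peptide. Library AAYL49 holds single substitutions and randomly drawn double and triple substitutions in the CDRs. AlphaSeq pools MATa yeast showing the antibodies with MATalpha yeast showing the peptide. The frequency of each diploid, read from paired DNA barcodes, reflects how well the two displayed proteins bind. Scores were corrected for input abundance and mapped to Kd with protein pairs of known affinity run in the same pool. Mating was done three times.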

Substitutions are numbered in sequence along the VH above, starting at 1 (not Kabat). Values are log10 of the apparent Kd in nM; lower means stronger binding. A mean of the replicates is given; it leaves out those without a signal. Where no diploid with the target was found in that replicate, the entry reads "n.d.": below detection, most likely a poor binder, though not proof of it. Background: pairings of library AAYL49 with three empty control strains gave a value in 15% of cases (median 4.06, 5th percentile 2.83). Values in that range, when seen in few replicates, are hard to tell from nonspecific mating. Also given: how often the same scFv was detected with the empty control strains, with their mean in brackets. In this assay the parent's reference entry averaged 0.65; its copy inside this library read 4.11 (one replicate of three).

changes,log10 Kd (nM) by replicate,mean log10 Kd (nM),control signals
R57Q/T58F/G99P,n.d. n.d. n.d.,n.d.,0/9
I34K/R100G/G103M,n.d. n.d. n.d.,n.d.,0/9
G61Q/G103M,3.78 n.d. 4.65,4.22,2/9 (4.27)
Y52E/A101V/G103E,n.d. n.d. n.d.,n.d.,1/9 (3.46)
T28E/Y60F/D62M,n.d. n.d. n.d.,n.d.,2/9 (4.75)
I34Y/K65H/A102G,n.d. n.d. n.d.,n.d.,0/9
I34L/S107E,n.d. n.d. n.d.,n.d.,0/9
F59N/A102D/T104E,n.d. 4.66 n.d.,4.66,3/9 (3.08)
F59V/D62F/G99D,4.93 1.84 2.72,3.16,1/9 (3.33)
S53V/S63A/V64M,4.38 n.d. n.d.,4.38,2/9 (3.76)
T28Q/D62Q,n.d. n.d. n.d.,n.d.,0/9
S31W/R57C/S63A,n.d. 4.68 n.d.,4.68,1/9 (2.83)
Y32D/D54S/G103A,n.d. n.d. n.d.,n.d.,2/9 (3.39)
Y32F/I51P/G61R,n.d. n.d. n.d.,n.d.,0/9
G103N/T104K/F105I,1.28 1.40 1.49,1.39,6/9 (4.53)
N30K/F59D/A101L,3.38 2.60 n.d.,2.99,1/9 (2.18)
S31Q/G61S/T104F,-0.42 0.03 -0.02,-0.14,8/9 (4.90)
N30L/A102W/S107P,4.07 n.d. n.d.,4.07,1/9 (3.34)
F27S/N30R/F105P,1.65 1.91 1.63,1.73,0/9
F27P/T28H/V50G,n.d. n.d. 5.05,5.05,0/9
F27Q/T28Q/A102W,2.40 n.d. n.d.,2.40,0/9
G26V/D54W/A101P,n.d. n.d. n.d.,n.d.,0/9
V50S/G55I/F105C,n.d. n.d. n.d.,n.d.,1/9 (3.17)
T28I/L29Y/D54Q,n.d. n.d. n.d.,n.d.,1/9 (2.78)
S35A/K65Q/G103Q,n.d. n.d. n.d.,n.d.,4/9 (4.18)
Y52M/T58K/D62I,n.d. n.d. 4.00,4.00,0/9
I51G/D62W/G99D,n.d. n.d. n.d.,n.d.,0/9
L29G/A102I/D106H,n.d. n.d. n.d.,n.d.,0/9
F59L/K65D/R100W,n.d. n.d. n.d.,n.d.,1/9 (4.88)
T28D/Y32Q/G55L,n.d. n.d. n.d.,n.d.,2/9 (3.68)
T28Q/S31R/F59L,3.20 n.d. n.d.,3.20,4/9 (3.78)
S35P/R56E/D106Q,n.d. 2.86 n.d.,2.86,0/9
S53V/A102V,n.d. n.d. n.d.,n.d.,6/9 (4.16)
R56H/S63E/A102E,n.d. 2.64 n.d.,2.64,1/9 (3.23)
I34K/A101M/T104L,n.d. 4.60 n.d.,4.60,0/9
G26M/Y52K/D62Y,n.d. n.d. n.d.,n.d.,0/9
G33L/K65V/G103W,4.21 3.53 5.96,4.57,6/9 (4.78)
I51D,n.d. n.d. 4.42,4.42,1/9 (3.68)
T28P/L29P/N30L,n.d. 5.26 5.95,5.60,4/9 (4.22)
N30L/T58F/V64N,n.d. n.d. n.d.,n.d.,2/9 (4.47)
S31M/A101S/A102H,n.d. n.d. n.d.,n.d.,1/9 (3.37)
N30W/Y60L/G61T,n.d. n.d. n.d.,n.d.,0/9
T28I/V50D,n.d. n.d. n.d.,n.d.,1/9 (3.94)
L29M/R56F/Y60I,n.d. n.d. n.d.,n.d.,2/9 (3.67)
I51S/R56C/T104Q,n.d. n.d. n.d.,n.d.,1/9 (3.46)
F27D/Y52P/K65E,n.d. n.d. n.d.,n.d.,0/9
F27C/D54K/G61Y,n.d. n.d. n.d.,n.d.,0/9
S31V/V50Q/S53A,5.08 3.45 n.d.,4.26,2/9 (3.40)
T58P/V64W,n.d. n.d. n.d.,n.d.,2/9 (3.46)
F27V/T28M/G33K,n.d. n.d. 6.10,6.10,4/9 (4.62)
F27N/N30Y/D62F,n.d. n.d. n.d.,n.d.,0/9
I34R/S35A/D62M,n.d. 4.26 n.d.,4.26,5/9 (4.02)

The opening 8 entries, copied out:

| changes | log10 Kd (nM) by replicate | mean log10 Kd (nM) | control signals |
|---|---|---|---|
| R57Q/T58F/G99P | n.d. n.d. n.d. | n.d. | 0/9 |
| I34K/R100G/G103M | n.d. n.d. n.d. | n.d. | 0/9 |
| G61Q/G103M | 3.78 n.d. 4.65 | 4.22 | 2/9 (4.27) |
| Y52E/A101V/G103E | n.d. n.d. n.d. | n.d. | 1/9 (3.46) |
| T28E/Y60F/D62M | n.d. n.d. n.d. | n.d. | 2/9 (4.75) |
| I34Y/K65H/A102G | n.d. n.d. n.d. | n.d. | 0/9 |
| I34L/S107E | n.d. n.d. n.d. | n.d. | 0/9 |
| F59N/A102D/T104E | n.d. 4.66 n.d. | 4.66 | 3/9 (3.08) |

Data: MIT Lincoln Laboratory AlphaSeq set, Engelhart et al. 2022, doi:10.1038/s41597-022-01779-4, as distributed in FLAb.